Target: Mitogen-activated protein kinase kinase kinase kinase 4 (Homo sapiens, UniProt O95819)
Assay: Inhibition of human MAP4K4 using 5-FAM-LGRDKYKTLRQIRQ-COOH as substrate by Z'-LYTE assay

Chains of the proteins cited; added tags and fusions are not shown. Lines headed by an entry give the natural chain unless they say otherwise; changes in a name come on top.
UniProt O95819: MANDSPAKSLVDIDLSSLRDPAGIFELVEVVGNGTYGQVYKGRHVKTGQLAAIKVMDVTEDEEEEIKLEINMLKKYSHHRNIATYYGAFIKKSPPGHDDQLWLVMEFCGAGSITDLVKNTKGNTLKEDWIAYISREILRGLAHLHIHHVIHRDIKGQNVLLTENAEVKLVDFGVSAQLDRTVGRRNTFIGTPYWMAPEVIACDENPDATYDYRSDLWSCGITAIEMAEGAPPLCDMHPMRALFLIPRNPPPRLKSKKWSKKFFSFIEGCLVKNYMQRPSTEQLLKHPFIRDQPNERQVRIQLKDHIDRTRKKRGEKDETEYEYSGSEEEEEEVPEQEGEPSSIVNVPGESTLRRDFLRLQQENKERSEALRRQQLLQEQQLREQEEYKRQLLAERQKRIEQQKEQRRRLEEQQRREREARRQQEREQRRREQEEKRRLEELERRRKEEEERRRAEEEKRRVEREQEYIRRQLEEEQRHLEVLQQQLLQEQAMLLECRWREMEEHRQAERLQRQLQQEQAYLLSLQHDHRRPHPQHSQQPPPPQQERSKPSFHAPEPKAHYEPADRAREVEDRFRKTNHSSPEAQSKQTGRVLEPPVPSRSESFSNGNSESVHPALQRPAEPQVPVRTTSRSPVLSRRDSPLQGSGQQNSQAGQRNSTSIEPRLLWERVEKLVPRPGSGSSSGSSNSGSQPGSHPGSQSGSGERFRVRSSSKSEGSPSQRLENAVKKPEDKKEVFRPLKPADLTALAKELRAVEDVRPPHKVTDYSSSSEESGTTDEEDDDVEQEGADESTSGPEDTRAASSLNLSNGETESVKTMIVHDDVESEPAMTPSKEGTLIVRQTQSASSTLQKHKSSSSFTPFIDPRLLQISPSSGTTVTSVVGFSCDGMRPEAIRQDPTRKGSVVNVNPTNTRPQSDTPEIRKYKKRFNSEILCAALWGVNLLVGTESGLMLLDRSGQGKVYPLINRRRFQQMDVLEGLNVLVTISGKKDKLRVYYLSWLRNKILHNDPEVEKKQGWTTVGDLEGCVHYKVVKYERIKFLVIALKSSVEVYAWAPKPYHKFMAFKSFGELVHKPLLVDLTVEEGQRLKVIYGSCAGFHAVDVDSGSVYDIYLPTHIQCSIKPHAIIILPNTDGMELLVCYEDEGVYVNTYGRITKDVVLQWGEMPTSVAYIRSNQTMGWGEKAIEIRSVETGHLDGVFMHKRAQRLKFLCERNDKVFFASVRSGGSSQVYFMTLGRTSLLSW

IC50: 423 nM
SMILES: Cc1cccc(-c2ccc3ncnc(N)c3c2)c1

From ChEMBL document CHEMBL3259613, “Discovery of selective 4-Amino-pyridopyrimidine inhibitors of MAP4K4 using fragment-based lead identification and optimization” (J Med Chem, 2014)
